Like-named read-outs stand apart in the source and are kept apart here.
Molecular target: hDGAT2 (Homo sapiens (Human), UniProt Q96PD7)
Test: DGAT2 enzymatic activity assay (triolein formation, LC/MS/MS)

Sequences of proteins named here, by UniProt entry; tags and fusion partners are left off. A change or cut given only in a name is not applied to a line headed by its entry.
UniProt Q96PD7: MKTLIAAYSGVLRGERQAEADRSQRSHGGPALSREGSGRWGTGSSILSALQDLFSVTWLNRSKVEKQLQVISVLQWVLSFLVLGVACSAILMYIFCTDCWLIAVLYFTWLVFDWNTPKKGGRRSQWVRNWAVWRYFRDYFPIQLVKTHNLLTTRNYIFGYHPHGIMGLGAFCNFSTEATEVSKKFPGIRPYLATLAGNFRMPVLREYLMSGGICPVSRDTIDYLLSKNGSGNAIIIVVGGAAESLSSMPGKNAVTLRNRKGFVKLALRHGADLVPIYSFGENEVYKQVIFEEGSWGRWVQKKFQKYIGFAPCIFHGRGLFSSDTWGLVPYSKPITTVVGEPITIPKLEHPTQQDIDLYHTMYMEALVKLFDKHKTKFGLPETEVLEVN

Row | SMILES | IC50 | IC50 (read-out: IC50 values for inhibition of DGAT2, membrane prep of Sf-9 cells expressing hDGAT2, 25 μM diolein, 10 μM oleoyl-CoA, room temperature, triolein by LC/MS/MS)
1 | COc1cccc(-c2ccc(CNC(=O)[C@@H](C)c3ccc(-c4ccccc4)c(F)c3)c3cnccc23)c1 (stereo in doubt) [Example 140, (R/S)-2-(2-fluoro-[1,1′-biphenyl]-4-yl)-N-((5-(3-methoxyphenyl)isoquinolin-8-yl)methyl)propanamide] | 624 nM | 
2 | COc1cccc(-c2ccc(CNC(=O)[C@H](C)c3ccc(-c4ccccc4)c(F)c3)c3cnccc23)c1 (stereo in doubt) [Example 145, (R/S)-2-(2-fluoro-[1,1′-biphenyl]-4-yl)-N-((5-(3-methoxyphenyl)isoquinolin-8-yl)methyl)propanamide] | 319 nM | 
3 | COc1cccc(-c2ccc(CNC(=O)C(C)c3cc(C(F)(F)F)cc(C(F)(F)F)c3)c3cnccc23)c1 (stereo not drawn) [Example 147, 2-(3,5-bis(trifluoromethyl)phenyl)-N-((5-(3-methoxyphenyl)isoquinolin-8-yl)methyl)propanamide] |  | 1190 nM

Source: patent publication US9828369B2, “Isoquinoline derivatives useful as inhibitors of diacylglyceride O-acyltransferase 2” (Merck Sharp & Dohme Corp., priority 2014, dated 2017)
